Test system: baseline uropathogens (complicated urinary tract infections)
Experiment: Phase 3 study of complicated urinary tract infections incl. pyelonephritis: composite cure / microbiological eradication at test-of-cure
Format: in vivo, human
Settings: ME population
Description: The primary efficacy endpoint was the composite microbiological and clinical cure response at the test-of-cure (TOC) visit in the microbiologically modified intent-to-treat (mMITT) population, which included all patients who received study medication and had at least 1 baseline uropathogen. The key secondary efficacy endpoint was the composite microbiological and clinical cure response at the TOC visit in the microbiologically evaluable (ME) population, which included protocol-adherent mMITT patients with a urine culture at the TOC visit.

SMILES: C[C@H]1COc2c(N3CCN(C)CC3)c(F)cc3c(=O)c(C(=O)O)cn1c23 [Levofloxacin, levofloxacin]
- Per pathogen microbiological eradication rate (Escherichia coli (CTX-M-14/15 ESBL producing)): (52.0) %
- Per pathogen microbiological eradication rate (Escherichia coli (ESBL-producing)): (50) %
- Per pathogen microbiological eradication rate (Klebsiella pneumoniae (CTX-M-15 ESBL producing)): (25.0) %
- Per pathogen microbiological eradication rate (Klebsiella pneumoniae (ESBL-producing)): (29) %

Source: patent publication US10933053B2, “Treating infections with ceftolozane/tazobactam in subjects having impaired renal function” (MERCK SHARP & DOHME CORP., priority 2013, dated 2021)
